# AlphaSeq binding of Ab-95 light chain variants to a spike HR2 peptide

From the AlphaSeq antibody data of Engelhart et al. 2022 (doi:10.1038/s41597-022-01779-4), copy in the FLAb collection.

Target peptide (SARS-CoV-2 spike, HR2 region): PDVDLGDISGINAS

The variants keep the heavy chain, the linker and the frameworks of Ab-95 (scFv order VH, the linker GGGGSGGGGSGGGGS, VL).
VH: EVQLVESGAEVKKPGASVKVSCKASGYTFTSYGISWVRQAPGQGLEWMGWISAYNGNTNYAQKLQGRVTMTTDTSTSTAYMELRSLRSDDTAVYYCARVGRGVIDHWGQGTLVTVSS
VL: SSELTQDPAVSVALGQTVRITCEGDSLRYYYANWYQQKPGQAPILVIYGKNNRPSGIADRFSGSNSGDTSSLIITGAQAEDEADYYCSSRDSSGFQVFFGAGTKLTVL

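Phage display of a naive human antibody library on the peptide gave the parent. Library AAYL52 holds single substitutions and randomly drawn double and triple substitutions in the CDRs. The assay is AlphaSeq: two haploid yeast populations carry antibody and antigen on their surface. Pairs that bind mate more often; barcode pairs of the diploids are counted by sequencing. Scores were corrected for input abundance and mapped to Kd with protein pairs of known affinity run in the same pool. There are three technical replicates.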

The parent's light chain CDRs are EGDSLRYYYAN, GKNNRPS, SSRDSSGFQVF; each variant's own CDRs replace them letter for letter. Values are log10 of the apparent Kd in nM; lower means stronger binding. "nd" means that the variant was in the library but no mating with the target was seen in that replicate; the authors take this as a sign of poor binding, and no number exists. Empty control strains, which show no peptide, gave a signal in 28% of pairings with library AAYL52; the median was 3.91 and 95% of these signals were weaker than 2.90. No background was subtracted. The control count says in how many pairings with the empty strains this scFv gave a signal, with their mean in brackets. For reference, the parent read 2.31 as the reference entry and 2.25 as a member of this library.

| # | CDR-L1 | CDR-L2 | CDR-L3 | log10 Kd, replicates | control signals |
|---|---|---|---|---|---|
| 1 | EGDSLRPYAAN | GKNNRPG | SSRDSSGFQVF | 2.37 2.55 2.46 | 1 of 9 (4.55) |
| 2 | EGDSLRYYIAN | YKNNRPS | STRDSSGFQVF | nd nd 3.39 | 1 of 9 (3.42) |
| 3 | EGDSLRYYYDN | GKNNRPS | SQRYSSGFQVF | 4.21 4.49 nd | 3 of 9 (4.69) |
| 4 | EGDSSRYPYAN | GKNNRPS | SSRYSSGFQVF | 1.81 1.37 1.20 | 2 of 9 (3.53) |
| 5 | EGDSLRYYYPN | GMNNRPS | SSRDSSEFQVF | 1.91 2.06 1.69 | 4 of 9 (4.24) |
| 6 | EGDSHRSYYDN | GKNNRPS | SSRDSSGFQVF | 4.23 4.62 nd | 0 of 9 |
| 7 | EGLSLRYYYAN | GKNNNPA | SSRDSSGFQVF | 3.73 3.53 3.26 | 5 of 9 (4.10) |
| 8 | EGDSLRYYYAN | GKPNRPI | SSRDSEGFQVF | 3.27 4.89 2.90 | 3 of 9 (4.00) |
| 9 | EGDSLRYVYAN | GKNNRKS | MSRDSSGFQVF | 2.73 2.83 2.75 | 2 of 9 (3.58) |
| 10 | EGKSLQYKYAN | GKNNRPS | SSRDSSGFQVF | 1.64 1.72 1.47 | 3 of 9 (4.24) |
| 11 | EGDSLRYYYAN | GKNNRPS | SSRDSSGFVVH | 2.16 2.05 1.90 | 1 of 9 (3.29) |
| 12 | KGDSLRYYYQN | GKNNRPS | SSRDMSGFQVF | 4.72 3.01 4.40 | 0 of 9 |
| 13 | EGDALRYYYAN | GWNNRPS | SSRDSSGFQWF | 3.37 3.34 4.16 | 1 of 9 (3.58) |
| 14 | EGDSLRYYYAN | GKNNRPG | SSRDSSGFQVC | 4.66 nd nd | 0 of 9 |
| 15 | EGWSLRAYYAN | GKNFRPS | SSRDSSGFQVF | nd 5.54 nd | 4 of 9 (3.94) |
| 16 | EGDSIRYYYAN | GKNNRWS | SSRDSKGFQVF | nd 4.13 3.35 | 2 of 9 (3.66) |
| 17 | EGDYLRVYYAK | GKNNRPS | SSRDSSGFQVF | 3.45 nd 3.18 | 3 of 9 (4.67) |
| 18 | EGDSLRYTYAN | HKNNRPS | SSRLSSGFQVF | nd nd nd | 2 of 9 (4.12) |
| 19 | EGTSLRYYYAN | GKNNRPS | DSRDSLGFQVF | nd nd nd | 0 of 9 |
| 20 | DGDSLRYYYPN | GSNNRPS | SSRDSSGFQVF | 2.11 2.61 2.11 | 3 of 9 (3.51) |
| 21 | EADSLSYYYAN | AKNNRPS | SSRDSSGFQVF | nd nd 4.01 | 1 of 9 (3.85) |
| 22 | EGDSLRYYYVN | GKNNRPS | SSTDSSGFQVF | 4.39 4.64 nd | 3 of 9 (3.74) |
| 23 | EGDSLRYYIAN | GKNNQPS | SSRDSSGFQVV | 4.19 nd 4.50 | 5 of 9 (4.29) |
| 24 | EGDSLRYYDAN | GKNNHPS | SSRDSSGFWVF | 3.34 2.73 2.92 | 0 of 9 |
| 25 | EGDSLRVYYAD | GKNNRPS | DSRDSSGFQVF | 5.24 nd 3.58 | 1 of 9 (4.46) |
| 26 | EGDSLRYYYAN | GKNLRCS | SSRDSSGFQVF | 3.10 5.21 nd | 3 of 9 (4.20) |
| 27 | EGDYLRYYYKN | GKNNRPS | SSRDSSGFVVF | 4.64 nd nd | 3 of 9 (4.16) |
| 28 | EADSLRYYYVN | GKNNRPS | SSRDSSGFCVF | 4.41 3.28 3.81 | 1 of 9 (3.88) |
| 29 | EGDHLRYYYAD | GKNPRPS | SSRDSSGFQVF | 3.94 3.51 3.32 | 3 of 9 (4.31) |
| 30 | EGDSLAYYYAN | GKNNRPS | SSRRSSDFQVF | nd nd nd | 0 of 9 |
| 31 | EGDSLRYYYAN | GINNRPS | SSRDSSGFKNF | 3.22 5.63 nd | 2 of 9 (3.30) |
| 32 | EGDSLRYYYFN | VKNNRPV | SSRDSSGFQVF | 3.94 4.43 nd | 1 of 9 (4.31) |
| 33 | EGDSHRYYYAN | GKNNRSS | SSRDSSGQQVF | nd nd nd | 2 of 9 (3.71) |
| 34 | SGDSLTYYYAN | GKNGRPS | SSRDSSGFQVF | 2.47 2.13 2.03 | 4 of 9 (4.49) |
| 35 | EGDSLYYYYAN | GKNNRLS | SSRDSPGFQVF | 5.20 nd 4.64 | 5 of 9 (4.45) |
| 36 | YGVSLRYYYAN | GKNNRPS | SSRDPSGFQVF | 2.54 3.40 2.28 | 2 of 9 (4.68) |
| 37 | EGDSLRYYYAS | GKNNDPS | ISRDSSGFQVF | 5.41 3.69 nd | 2 of 9 (4.80) |
| 38 | EQDSLRYYYAN | GKNIRPS | SSRDDSGFQVF | 2.84 5.07 3.86 | 0 of 9 |
| 39 | EPDSLRYYPAP | GKNNRPS | SSRDSSGFQVF | 3.98 5.56 nd | 2 of 9 (4.20) |
| 40 | EGDSLRYYYAN | GKNNRPS | SEFDSHGFQVF | nd nd nd | 0 of 9 |
| 41 | EMDSLRYYYAN | GKNNRPS | SSTDSSGFHVF | nd nd 3.44 | 2 of 9 (3.99) |
| 42 | EGDSLRYYYAN | GKNNHPS | SSRDPSGFQVF | 2.08 2.37 2.62 | 2 of 9 (3.59) |
| 43 | EGDSLRYYYAN | YKHNRPS | SSRDSSGPQVF | nd nd nd | 1 of 9 (3.37) |

Excerpt, the first 4 entries:

CDR-L1,CDR-L2,CDR-L3,"log10 Kd, replicates",control signals
EGDSLRPYAAN,GKNNRPG,SSRDSSGFQVF,2.37 2.55 2.46,1 of 9 (4.55)
EGDSLRYYIAN,YKNNRPS,STRDSSGFQVF,nd nd 3.39,1 of 9 (3.42)
EGDSLRYYYDN,GKNNRPS,SQRYSSGFQVF,4.21 4.49 nd,3 of 9 (4.69)
EGDSSRYPYAN,GKNNRPS,SSRYSSGFQVF,1.81 1.37 1.20,2 of 9 (3.53)